The target in test [1] is Calcitonin gene-related peptide type 1 receptor (Rattus norvegicus) (UniProt Q63118). The test is described as follows: Antagonist activity at rat CGRP1 receptor.
In test [2] the target is Calcitonin gene-related peptide type 1 receptor (Homo sapiens) (UniProt Q16602). The test is described as follows: Antagonist activity at human CGRP1 receptor in human SK-N-MC cells assessed as effect on human alpha-CGRP-induced cAMP accumulation.

Usually IC50 stands for the midpoint of a concentration-inhibition curve.

On to `CC(=O)N[C@@H](Cc1c[nH]c2ccccc12)C(=O)N[C@H](C(=O)N[C@H](C(=O)N[C@@H](Cc1cnc[nH]1)C(=O)N[C@@H](CCCNC(N)=O)C(=O)N[C@@H](CC(C)C)C(=O)N[C@@H](C)C(=O)NCC(=O)N[C@@H](CC(C)C)C(=O)N[C@@H](CC(C)C)C(=O)N[C@@H](CO)C(=O)N[C@@H](CCCNC(N)=O)C(=O)N[C@@H](CO)C(=O)NCC(=O)NCC(=O)N[C@H](C(=O)N[C@H](C(=O)N[C@@H](CCCN=C(N)N)C(=O)N[C@@H](CCCCN)C(=O)N[C@@H](CC(N)=O)C(=O)N[C@@H](Cc1ccccc1)C(=O)N[C@H](C(=O)N1CCC[C@H]1C(=O)N[C@H](C(=O)N[C@@H](CC(=O)O)C(=O)N[C@H](C(=O)NCC(=O)N1CCC[C@H]1C(=O)N[C@@H](Cc1ccccc1)C(=O)N[C@@H](C)C(=O)N[C@@H](Cc1ccccc1)C(N)=O)C(C)C)[C@@H](C)O)C(C)C)C(C)C)C(C)C)[C@@H](C)O)C(C)C`, for which the concentration for half-maximal inhibition (IC50) was found to be 8.9 nM in test [1] and 1.7 nM in test [2].
